# Experimental data taken from PubChem BioAssay AID463190 (Sanford-Burnham Center for Chemical Genomics, 2010).
# Only a part is listed here, and it is no random draw. Calls of active or inactive are those of the source.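 The calls were made as follows: active = inhibition of at least 40%; inactive = the rest.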
# Assay: growth inhibition of tim10-1 ts yeast – luminescence, uHTS, primary screen (AID 463190);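 also: mutant grown at 25 °C; 0% = DMSO wells with yeast and 100% = wells holding no yeast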
# Settings: S. cerevisiae tim10-1 ts strain growth, BacTiter-Glo, 24 h; at 20 µM; hits give high values
row,Compound,inhibition
1,c1nnnn1CCn1cnnn1,inactive: 3.1%
2,CC(C)C(=O)NC(Sc1ccccc1)C(Cl)(Cl)Cl (configuration not stated),inactive: 16.7%
3,O=P(Nc1nccs1)(c1ccccc1)c1ccccc1,inactive: 3.21%
4,C(Cc1nn[nH]n1)Cc1nn[nH]n1,inactive: -2.99%
5,Nc1ccc([As](=O)(O)c2ccc([N+](=O)[O-])cc2)cc1,inactive: -15.1%
6,O=C(OC1CN2CCC1CC2)c1cccc(Cl)c1 (configuration not stated),inactive: 4.06%
7,O=[N+]([O-])c1ncn(CCn2cnc([N+](=O)[O-])n2)n1,inactive: -2.76%
8,O=[As](O)(c1ccccc1)c1ccc(O)cc1,inactive: 1.15%
9,C[C@H]1OP(=O)(Oc2ccccc2)[C@H](O)[C@H](O)[C@H]1N=[N+]=[N-] (some centres not stated),inactive: -23.3%
10,O=P(Nc1nc2ccccc2s1)(c1ccccc1)c1ccccc1,inactive: 3.9%
11,O=P(Nc1ccccn1)(c1ccc(Br)cc1)c1ccc(Br)cc1,inactive: 17.3%
12,CN(C)C1(CNC(=O)c2ccc(Cl)c(S(N)(=O)=O)c2)CCCCC1,inactive: 12.8%
13,CN(C)C(=O)Oc1noc2ccccc12,inactive: -9.51%
14,CC(NC(=O)COC(=O)C(O)(c1ccccc1)c1ccccc1)c1ccccc1 (configuration not stated),inactive: 12.2%
15,Cc1ccccc1OP(=O)(Nc1ccccn1)Oc1ccccc1C,inactive: 24.6%
16,Cc1ccc(OP(=O)(Nc2ccccn2)Oc2ccc(C)cc2)cc1,inactive: 17.4%
17,CC(=O)NC(SC(=S)N(CC(C)C)CC(C)C)C(Cl)(Cl)Cl (configuration not stated),active: 46.7%
18,COC(=O)c1cc2c(s1)N=C(c1ccccc1)N(C)P2(=O)N1CCOCC1 (configuration not stated),inactive: 9.13%
19,CCC(=O)N1C2C3N(C(=O)CC)C1C1N(C(=O)CC)C(C(N1C(=O)CC)N3C(=O)CC)N2C(=O)CC,inactive: 7.25%
20,O=C(OC1CN2CCC1CC2)c1ccccc1 (configuration not stated),inactive: 2.47%
21,CCNC(=S)/N=C(\N)N[N+](=O)[O-],inactive: -4.95%
22,O=C(NC1CCS(=O)(=O)C1)NP(=S)(Oc1ccccc1)Oc1ccccc1 (configuration not stated),inactive: -4.49%
23,CCOC(=O)NC(Sc1ccccc1)C(Cl)(Cl)Cl (configuration not stated),inactive: 5.42%
24,Cc1ccc(NP(=O)(Oc2cccc(C)c2)Oc2cccc(C)c2)nc1,inactive: -14.3%
25,c1ccc(-c2nn[nH]n2)c(-c2nn[nH]n2)c1,inactive: 3.16%
26,CC(=O)Nc1ccc(Oc2c([N+](=O)[O-])cc([N+](=O)[O-])cc2[N+](=O)[O-])cc1,inactive: 0.28%

row,Compound,inhibition
1,CC(=O)Nc1ccc([As](=O)(O)O)c(O)c1,inactive: -9.93%
2,CC(=O)c1ccc(N2CC2c2ccncc2)cc1 (configuration not stated),inactive: -4.13%
3,C[C@H]1OP(=O)(Oc2ccccc2)C[C@@H]2O[C@@H]21 (some centres not stated),inactive: -3.52%
4,C[C@@H]1C=CCP(=O)(Oc2ccccc2)O1 (some centres not stated),inactive: -11.5%
5,Cc1ccccc1CN(C)C(=O)COC(=O)C(O)(c1ccccc1)c1ccccc1,inactive: 13.1%
6,CC(C)(C)C(=O)NC(Sc1ccccc1)C(Cl)(Cl)Cl (configuration not stated),inactive: 8.49%
7,CCOc1ccc(C2=NCC(CBr)S2)cc1 (configuration not stated),inactive: 9.36%
8,O=P1(Nc2nc3ccc(Cl)cc3s2)COc2ccccc2O1 (configuration not stated),inactive: 12.1%
9,Nc1cc(N)c2nonc2c1[N+](=O)[O-],inactive: -4.71%
10,CC(C)CC(=O)NC(Sc1ccc(Cl)cc1)C(Cl)(Cl)Cl (configuration not stated),inactive: 13%
11,O=C(NC(Sc1ccncn1)C(Cl)(Cl)Cl)c1ccccc1 (configuration not stated),inactive: 12.2%
12,Cc1c2non([O-])c-2c(C)[n+](=O)[n+]1[O-],active: 45.7%
13,Oc1ccccc1CNc1ccccn1,inactive: -13.3%
14,Cc1ccc(OP(=O)(Nc2nccs2)Oc2ccc(C)cc2)cc1,inactive: 11.2%
15,COc1ccccc1OP(=O)(Nc1ccc(C)cn1)Oc1ccccc1OC,inactive: 13.7%
16,CN1CCCC(OC(=O)C(c2ccccc2)c2ccccc2)C1 (configuration not stated),inactive: 10.7%
17,Clc1ccc(Cl)c(NC2=NCC(CBr)S2)c1 (configuration not stated),inactive: 17.9%
18,NC(=O)c1cc([N+](=O)[O-])cc([N+](=O)[O-])c1N,inactive: 17.8%
19,Cc1ccc(N/C(=N/P(=O)(N2CCOCC2)N2CCOCC2)N2CCOCC2)cc1,inactive: 10.4%
20,CN(C(=O)Cc1ccc(Cl)c(Cl)c1)[C@H]1CCCC[C@H]1N1CCCC1,inactive: -3.16%
21,CCN(N=Nc1nonc1N)c1nonc1N,inactive: -2%
22,O=[N+]([O-])c1cc([N+](=O)[O-])c(CCN2CCOCC2)c([N+](=O)[O-])c1,inactive: 31.2%
23,Cc1ccc(NP(=O)(Oc2ccccc2F)Oc2ccccc2F)nc1,inactive: 12%
24,CN(C(=O)Cc1ccc(Cl)c(Cl)c1)[C@H]1CCCC[C@@H]1N1CCCC1,inactive: 16.9%
25,Cc1cc(SC(NC(=O)c2ccc(F)cc2)C(Cl)(Cl)Cl)ncn1 (configuration not stated),inactive: 13.5%
26,CCOP(=O)(Nc1ccccc1)OCC,inactive: 14.5%

row,Compound,inhibition
1,CC(=O)Nc1ccc([As](=O)(O)O)cc1,inactive: 2.94%
2,O=C(O)c1ccccc1[As](=O)(O)O,inactive: 21.4%
3,O=P(Nc1nc2ccc(Cl)cc2s1)(c1ccccc1)c1ccccc1,inactive: 17.3%
4,O=[N+]([O-])c1cccc(NC2=NCC(CBr)S2)c1 (configuration not stated),inactive: 11.6%
5,CC(C)(C)C(=O)NC(Sc1ccncn1)C(Cl)(Cl)Cl (configuration not stated),inactive: 3.21%
6,O=[N+]([O-])c1ncn(CCn2ncnc2[N+](=O)[O-])n1,inactive: -1.99%
7,O=C(Nc1cc([As](=O)(O)O)ccc1O)c1ccccc1,inactive: 22.7%
8,CN(C)C(=O)OCCc1n(C)cc[n+]1C,inactive: 20.8%
9,CC(C)=N/N=C(\N)N[N+](=O)[O-],inactive: 16.3%
10,CC1CCN(C(=O)Oc2c(Cl)cc(Cl)c3cccnc23)CC1,inactive: 9.3%
11,C[N+]1=C2C=CC=CC=C2SC12C([N+](=O)[O-])=CC([N+](=O)[O-])=C[C-]2[N+](=O)[O-] (configuration not stated),inactive: 37.7%
12,Nc1ccc([As](=O)(O)c2ccc(N)cc2)cc1,inactive: -10.8%
13,CCN(/C(=N/P(=O)(N1CCOCC1)N1CCOCC1)N1CCOCC1)c1ccc(OC)cc1,inactive: 11.9%
14,O=[N+]([O-])c1cccc2n[nH]nc12,inactive: 1.35%
15,CC(=O)N1C2C3N(C(C)=O)C1C1N(C(C)=O)C(C(N1C(C)=O)N3C(C)=O)N2C(C)=O,inactive: 2.87%
16,CCc1nc2c(n1)c1c(non1O)c1c2no[n+]1[O-],inactive: 14.6%
17,O=[N+]([O-])c1cc([N+](=O)[O-])c(CCNc2ccccc2)c([N+](=O)[O-])c1,active: 45.7%
18,Cc1ccc(NP(=O)(Oc2ccccc2)Oc2ccccc2)nc1,inactive: 8.25%
19,COc1ccc(C2=NCC(CBr)S2)cc1 (configuration not stated),inactive: 9.89%
20,CCC(C)N(CC(C)C)C(=S)SC(NC(C)=O)C(Cl)(Cl)Cl (configuration not stated),inactive: 25.2%
21,CCOC(=O)c1ccc(NC(=O)C(C)(CCl)SC)cc1 (configuration not stated),inactive: 23.7%
22,O=C(OC1CN2CCC1CC2)c1cccc([N+](=O)[O-])c1 (configuration not stated),inactive: -139%
23,O=C(Nc1ccncc1[N+](=O)[O-])c1ccc([N+](=O)[O-])cc1[N+](=O)[O-],inactive: 33.7%
24,O=C(COc1ccccc1)OC1CN2CCC1CC2 (configuration not stated),inactive: -13.6%
25,COP1(=S)c2c(C)nn(CCC#N)c2N=C(c2ccc(F)cc2)N1C (configuration not stated),inactive: 12.4%
26,O=P(Nc1ccccn1)(c1cccc2ccccc12)c1cccc2ccccc12,inactive: 28.5%

row,Compound,inhibition
1,Cc1cc(SC(NC=O)C(Cl)(Cl)Cl)ncn1 (configuration not stated),inactive: 10.6%
2,CCOC(=O)Nc1cccc([As](=O)(O)O)c1,inactive: 5.99%
3,Cc1cc(SC(NC(=O)c2ccccc2)C(Cl)(Cl)Cl)nc(C(C)C)n1 (configuration not stated),inactive: 31.4%
4,CCCCOc1ccc(C(=O)NCC2(N3CCCCC3)CCCCC2)cc1OC,inactive: 8.46%
5,CCOC(=O)Nc1ccc([As](=O)(O)O)c(O)c1,inactive: 0.357%
6,O=[N+]([O-])c1cc([N+](=O)[O-])c(-c2ccn[nH]2)s1,active: 87.8%
7,CC(C)NC(=O)NP(=O)(Oc1ccccc1)Oc1ccccc1,inactive: 7.14%
8,O=C(OC1CN2CCC1CC2)c1cccc2[nH]cnc12 (configuration not stated),inactive: -7.23%
9,CCN(CC)C(=S)SC(NC=O)C(Cl)(Cl)Cl (configuration not stated),inactive: 15%
10,CC(C)c1ccc(OP(=O)(Nc2ccccn2)Oc2ccccc2F)cc1 (configuration not stated),inactive: 21.7%
11,ClCCSc1nnc(-c2cccnc2)o1,inactive: 18.3%
12,Cc1ccc2nc3c(c(C)c2c1)CC(C(Cl)Cl)S3 (configuration not stated),active: 42.5%
13,Cc1ccc(OP(=O)(Nc2ccc([N+](=O)[O-])cn2)Oc2ccc(C)cc2)cc1,inactive: 18.9%
14,COc1cc(C(=O)NCC2(N3CCOCC3)CCCCC2)ccc1OCC(C)C,inactive: 31.6%
15,O=[As](O)(c1ccc(O)cc1)c1ccccc1O,inactive: -6.31%
16,C[As](=O)(O)c1cccc(C(=O)O)c1,inactive: 7.91%
17,COc1ccc(N/C(=N/P(=O)(N2CCOCC2)N2CCOCC2)N2CCOCC2)cc1,inactive: 3.58%
18,COc1cc(I)ccc1[As](=O)(O)O,inactive: -16.6%
19,COc1ccc2nc(NP(=O)(c3ccccc3)c3ccccc3)sc2c1,inactive: 23.3%
20,Cc1cc(=O)[nH]c(N[N+](=O)[O-])n1,inactive: 7.53%
21,O=C(OC1CN2CCC1CC2)C12CC3CC(CC(C3)C1)C2 (configuration not stated),inactive: 10.5%
22,Cc1c2c(nc3ccccc13)SC(C(Cl)Cl)C2 (configuration not stated),inactive: 19.5%
23,CCOP(=O)(Nc1cccc2ccccc12)OCC,inactive: 11.2%
24,COc1cc(C2NCCC3(OCCO3)C2(C)C)cc(OC)c1OC (configuration not stated),inactive: 21.8%
